# Measurements from article PMC11533527, “A yeast two-hybrid system to obtain triple-helical ligands from combinatorial random peptide libraries” (The Journal of Biological Chemistry, 2024).
# How the values were obtained:
# [1] = CD, [θ]225 with increasing temperature from 4 to 85 °C at 18 °C per hour; peptides in PBS, heated 95 °C 5 min, stored 4 °C overnight; Tm = temperature of minimum slope
# Method: The peptides were synthesized by Fmoc-based solid-phase synthesis and purified by RP-HPLC (Figs. S3 and S4). The conformational state of the synthetic peptides was analyzed by circular dichroism (CD) spectrometry.
# CD spectra were recorded on a J-820 CD spectropolarimeter (JASCO, Tokyo, Japan) equipped with a Peltier thermal controller using a 0.5-mm path-length quartz cuvette and connected to a data station for signal averaging. The peptides in PBS were heated at 95 °C for 5 min, incubated at room temperature for 10 min, and stored at 4 °C overnight to allow the formation of the triple-helical structure. Data were obtained using continuous wavelength scans from 200 to 260 nm. The spectra are reported in terms of ellipticity units per mole of amino acid residue [θ]mrw. Triple-helix thermostability was monitored by observation of each peptide [θ]225 value with increasing temperature from 4 to 85 °C at 18 °C per hour. The obtained molar ellipticity was differentiated to calculate the slopes at each temperature, and the temperature at which the minimum value was obtained was taken as the melting temperature of the triple helix (Tm).
# GST-PEDF = biological target: T1, GST-PEDF (Mus musculus, UniProt P97298); test: Competitive ELISA: binding of GST-PEDF to type I collagen-coated wells in the presence of the synthetic peptides; settings: from IC50 values of competitive ELISA; F-test; assuming 1:1 binding of trimeric peptide to PEDF
# T1 construct: made in house
# T1 sequence (P97298 20-417): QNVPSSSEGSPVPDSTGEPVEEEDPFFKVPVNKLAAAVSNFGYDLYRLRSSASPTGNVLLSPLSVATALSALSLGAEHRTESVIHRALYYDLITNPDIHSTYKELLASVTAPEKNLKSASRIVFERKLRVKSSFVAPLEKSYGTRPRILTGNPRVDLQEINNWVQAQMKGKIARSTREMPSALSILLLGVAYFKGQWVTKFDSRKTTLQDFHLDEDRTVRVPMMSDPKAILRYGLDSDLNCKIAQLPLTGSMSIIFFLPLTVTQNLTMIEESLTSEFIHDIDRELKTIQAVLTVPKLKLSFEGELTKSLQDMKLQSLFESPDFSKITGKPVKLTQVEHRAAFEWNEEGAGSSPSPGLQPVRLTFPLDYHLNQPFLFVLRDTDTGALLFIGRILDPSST
# Method: We performed a competitive enzyme-linked immunosorbent assay (ELISA) to evaluate the relative binding affinity of the synthetic peptides to PEDF. In this assay, a competitive decrease in the binding of glutathione S-transferase (GST)-PEDF-fusion protein to the type I collagen-coated wells by the addition of the peptides was quantified by immuno-enzymatic colorimetric detection. […] The relative PEDF-binding affinity of the peptides was evaluated using the IC50 values derived from the binding inhibitory curves (Table 2 and Fig. 5).
# GST-fused PEDF was prepared in accordance with a previous report (Fig. S7) ([15]). The synthetic peptides were annealed by the above method before being used in the assay. Wells were coated with 10 μg/ml collagen I (Koken, Tokyo, Japan) overnight. After coating, wells were blocked with 0.5% skim milk in ELISA buffer [20 mM HEPES-Na (pH 7.4), 100 mM NaCl, 0.005% Tween 20]. The annealed peptides were preincubated with 3 nM GST-PEDF to be tested in the ELISA buffer for 10 min at room temperature. The mixtures were added to wells and incubated for 90 min at 4 °C. […] After 30 min, the absorbance at 405 nm was measured on a Vient XS multiwell plate reader (DS Pharma, Osaka, Japan). […] The p-value was calculated from an F-test.
SMILES,Melting temperature of the triple helix (Tm) [1] [°C],Binding affinity to PEDF relative to pepα1(I)930–938 (GST-PEDF)
C[C@@H](O)[C@H](NC(=O)[C@H](Cc1ccccc1)NC(=O)CNC(=O)[C@H](CCCNC(=N)N)NC(=O)[C@@H]1CCCN1C(=O)CNC(=O)[C@H](CCCNC(=N)N)NC(=O)[C@@H]1CCCN1C(=O)CNC(=O)[C@@H]1C[C@@H](O)CN1C(=O)[C@@H]1CCCN1C(=O)CNC(=O)[C@@H]1C[C@@H](O)CN1C(=O)[C@@H]1CCCN1C(=O)CNC(=O)[C@@H]1C[C@@H](O)CN1C(=O)[C@@H]1CCCN1C(=O)CNC(=O)[C@@H]1C[C@@H](O)CN1C(=O)[C@@H]1CCCN1C(=O)[C@@H](N)Cc1ccc(O)cc1)C(=O)NCC(=O)N[C@@H](Cc1ccccc1)C(=O)N1C[C@H](O)C[C@H]1C(=O)NCC(=O)N1CCC[C@H]1C(=O)N1C[C@H](O)C[C@H]1C(=O)NCC(=O)N1CCC[C@H]1C(=O)N1C[C@H](O)C[C@H]1C(=O)NCC(=O)N1CCC[C@H]1C(=O)N1C[C@H](O)C[C@H]1C(=O)NCC(=O)N1CCC[C@H]1C(=O)N1C[C@H](O)C[C@H]1C(=O)NCC(=O)N1CCC[C@H]1C(N)=O [pep10],57.6,comparable
CSCC[C@H](NC(=O)[C@H](Cc1ccccc1)NC(=O)CNC(=O)[C@H](CCCNC(=N)N)NC(=O)[C@H](CCCNC(=N)N)NC(=O)CNC(=O)[C@H](CC(N)=O)NC(=O)[C@@H]1CCCN1C(=O)CNC(=O)[C@@H]1C[C@@H](O)CN1C(=O)[C@@H]1CCCN1C(=O)CNC(=O)[C@@H]1C[C@@H](O)CN1C(=O)[C@@H]1CCCN1C(=O)CNC(=O)[C@@H]1C[C@@H](O)CN1C(=O)[C@@H]1CCCN1C(=O)CNC(=O)[C@@H]1C[C@@H](O)CN1C(=O)[C@@H]1CCCN1C(=O)[C@@H](N)Cc1ccc(O)cc1)C(=O)NCC(=O)N[C@@H](CCSC)C(=O)N1C[C@H](O)C[C@H]1C(=O)NCC(=O)N1CCC[C@H]1C(=O)N1C[C@H](O)C[C@H]1C(=O)NCC(=O)N1CCC[C@H]1C(=O)N1C[C@H](O)C[C@H]1C(=O)NCC(=O)N1CCC[C@H]1C(=O)N1C[C@H](O)C[C@H]1C(=O)NCC(=O)N1CCC[C@H]1C(=O)N1C[C@H](O)C[C@H]1C(=O)NCC(=O)N1CCC[C@H]1C(N)=O [pep6],37.0,–
CC(C)C[C@H](NC(=O)CNC(=O)[C@H](CCCNC(=N)N)NC(=O)[C@@H]1CCCN1C(=O)CNC(=O)[C@H](CCCNC(=N)N)NC(=O)[C@@H]1CCCN1C(=O)CNC(=O)[C@@H]1C[C@@H](O)CN1C(=O)[C@@H]1CCCN1C(=O)CNC(=O)[C@@H]1C[C@@H](O)CN1C(=O)[C@@H]1CCCN1C(=O)CNC(=O)[C@@H]1C[C@@H](O)CN1C(=O)[C@@H]1CCCN1C(=O)CNC(=O)[C@@H]1C[C@@H](O)CN1C(=O)[C@@H]1CCCN1C(=O)[C@@H](N)Cc1ccc(O)cc1)C(=O)N[C@H](C(=O)NCC(=O)N[C@@H](Cc1ccccc1)C(=O)N1C[C@H](O)C[C@H]1C(=O)NCC(=O)N1CCC[C@H]1C(=O)N1C[C@H](O)C[C@H]1C(=O)NCC(=O)N1CCC[C@H]1C(=O)N1C[C@H](O)C[C@H]1C(=O)NCC(=O)N1CCC[C@H]1C(=O)N1C[C@H](O)C[C@H]1C(=O)NCC(=O)N1CCC[C@H]1C(=O)N1C[C@H](O)C[C@H]1C(=O)NCC(=O)N1CCC[C@H]1C(N)=O)[C@@H](C)O [pep5],53.8,–
CC(C)C[C@H](NC(=O)CNC(=O)[C@H](Cc1c[nH]cn1)NC(=O)[C@H](Cc1ccccc1)NC(=O)CNC(=O)[C@H](CCCNC(=N)N)NC(=O)[C@H](CCCNC(=N)N)NC(=O)CNC(=O)[C@H](CCCCN)NC(=O)[C@@H]1CCCN1C(=O)CNC(=O)[C@@H]1C[C@@H](O)CN1C(=O)[C@@H]1CCCN1C(=O)CNC(=O)[C@@H]1C[C@@H](O)CN1C(=O)[C@@H]1CCCN1C(=O)CNC(=O)[C@@H]1C[C@@H](O)CN1C(=O)[C@@H]1CCCN1C(=O)CNC(=O)[C@@H]1C[C@@H](O)CN1C(=O)[C@@H]1CCCN1C(=O)[C@@H](N)Cc1ccc(O)cc1)C(=O)N1C[C@H](O)C[C@H]1C(=O)NCC(=O)N1CCC[C@H]1C(=O)N1C[C@H](O)C[C@H]1C(=O)NCC(=O)N1CCC[C@H]1C(=O)N1C[C@H](O)C[C@H]1C(=O)NCC(=O)N1CCC[C@H]1C(=O)N1C[C@H](O)C[C@H]1C(=O)NCC(=O)N1CCC[C@H]1C(=O)N1C[C@H](O)C[C@H]1C(=O)NCC(=O)N1CCC[C@H]1C(N)=O [pep7],35.0,more potent
CC(C)C[C@H](NC(=O)[C@H](Cc1ccccc1)NC(=O)CNC(=O)[C@H](CCCNC(=N)N)NC(=O)[C@H](Cc1c[nH]cn1)NC(=O)CNC(=O)[C@H](CCCNC(=N)N)NC(=O)[C@@H]1CCCN1C(=O)CNC(=O)[C@@H]1C[C@@H](O)CN1C(=O)[C@@H]1CCCN1C(=O)CNC(=O)[C@@H]1C[C@@H](O)CN1C(=O)[C@@H]1CCCN1C(=O)CNC(=O)[C@@H]1C[C@@H](O)CN1C(=O)[C@@H]1CCCN1C(=O)CNC(=O)[C@@H]1C[C@@H](O)CN1C(=O)[C@@H]1CCCN1C(=O)[C@@H](N)Cc1ccc(O)cc1)C(=O)NCC(=O)N[C@@H](CC(C)C)C(=O)N1C[C@H](O)C[C@H]1C(=O)NCC(=O)N1CCC[C@H]1C(=O)N1C[C@H](O)C[C@H]1C(=O)NCC(=O)N1CCC[C@H]1C(=O)N1C[C@H](O)C[C@H]1C(=O)NCC(=O)N1CCC[C@H]1C(=O)N1C[C@H](O)C[C@H]1C(=O)NCC(=O)N1CCC[C@H]1C(=O)N1C[C@H](O)C[C@H]1C(=O)NCC(=O)N1CCC[C@H]1C(N)=O [pep3],43.6,–
CC(C)C[C@H](NC(=O)CNC(=O)[C@H](CCCNC(=N)N)NC(=O)[C@H](CCCNC(=N)N)NC(=O)CNC(=O)[C@@H](NC(=O)[C@@H]1CCCN1C(=O)CNC(=O)[C@@H]1C[C@@H](O)CN1C(=O)[C@@H]1CCCN1C(=O)CNC(=O)[C@@H]1C[C@@H](O)CN1C(=O)[C@@H]1CCCN1C(=O)CNC(=O)[C@@H]1C[C@@H](O)CN1C(=O)[C@@H]1CCCN1C(=O)CNC(=O)[C@@H]1C[C@@H](O)CN1C(=O)[C@@H]1CCCN1C(=O)[C@@H](N)Cc1ccc(O)cc1)C(C)C)C(=O)N[C@@H](CO)C(=O)NCC(=O)N[C@@H](CC(C)C)C(=O)N1C[C@H](O)C[C@H]1C(=O)NCC(=O)N1CCC[C@H]1C(=O)N1C[C@H](O)C[C@H]1C(=O)NCC(=O)N1CCC[C@H]1C(=O)N1C[C@H](O)C[C@H]1C(=O)NCC(=O)N1CCC[C@H]1C(=O)N1C[C@H](O)C[C@H]1C(=O)NCC(=O)N1CCC[C@H]1C(=O)N1C[C@H](O)C[C@H]1C(=O)NCC(=O)N1CCC[C@H]1C(N)=O [pep11],41.8,–
